From PubChem
UUG fidelity: modulators of start codon recognition fidelity in yeast; AID 602363; activity score, % at 18.7 µM; S. cerevisiae UUG-firefly luciferase reporter, luminescence/redox ratio; 0.13% of 350,000 active;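 active = replicate mean at a twofold rise or more, about +100% in these data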;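 note: firefly luciferase made from a UUG start codon reports start codon fidelity; reporter light over untreated wells divided by growth signal over untreated wells; some hits fall short of that in this replicate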
MC4R antagonist: blocks human MC4R cAMP signaling; P32245; MC4R-expressing cells, MTII-stimulated cAMP, LANCE TR-FRET; inhibition, % at 6.5 µM; hit rate 0.48% among 360,000; AID 540295;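 active = inhibition above its plate's cutoff, the mean of tested wells on that plate plus 3 SD, cut at about 29% in these data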;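 note: 0% = Melanotan II alone and 100% = Melanotan II plus saturating MCL0020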
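Assay system: human MC4R-expressing U2OS cells; reagent: Melanotan II stimulation of cells; dosing: 6.5 µM single dose; timing: compound 30 min, challenge 1 h, detection 1 h; signal: TR-FRET cAMP assay; replicates: one well per compound, no replicates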
HDAC3 inhib: blocks human histone deacetylase 3; O15379; recombinant HDAC3, fluorogenic peptide/trypsin coupled, fluorescence; inhibition, % at 8.3 µM; hit rate 0.15% among 320,000; AID 2718; in the data active = inhibition above about 26%, passing the limit was not always enough
MC4R barr agon: activates human MC4R beta-arrestin recruitment | P32245 | U2OS MC4R beta-arrestin complementation, luminescence; percent of melanotan II response, DMSO zero | activation, % at 8.9 µM | hit rate 0.98% among 360,000 | AID 540308;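 active = activation above a per-plate cutoff, the mean activation of sample wells on that plate plus 3 SD, cut at about 8% in these data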
NALP1 yeast inh: NALP1 inhibition. S. cerevisiae NALP1/ASC/caspase-1 growth, X-gal OD620, 72 h. inhibition, % at 10 µM. hit rate 0.61% among 280,000; in the data active = inhibition mostly above about 24%, no sharp cut-off; inactive = mostly below about 32%
ALR inh: human ALR oxidase inhibition via reduced H2O2; P55789; 290,000 tested, 3.8% active; inhibition, % (no concentration beside the values); purified ALR, DTT oxidation, H2O2 HRP-luminol luminescence; AID 485317;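 active = mean and each replicate at 75% or more; inconclusive = only one of the two met; inactive = neither met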;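 note: stock transfer was 7.5 nL into about 7.5 µL; 0% = neutral wells and 100% = wells with inactivated enzyme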
The depositor's hits bear a star; x = no result. In the library only some 4.2% were active in any assay of this set; here they are far more common.

Every second line gives: UUG fidelity	MC4R antagonist	HDAC3 inhib	MC4R barr agon	NALP1 yeast inh	ALR inh
- CCc1noc(C)c1C(=O)OCC(=O)c1ccc(OC)c(OC)c1
 : -6	-4	0	-3	x	x
- COc1ccc(OC)c(-c2csc(NC(=O)CSCc3c(C)noc3C)n2)c1
 : x	-1	5	0	x	98*
- COc1ccc(C(=O)COC(=O)CSCc2c(C)noc2C)cc1OC
 : x	4	2	0	-2	98*
- O=C(O)C1=CC(=C(c2ccc(O)c(C(=O)O)c2)c2ccc(O)c(C(=O)O)c2)C=CC1=O
 : x	x	-35	x	x	97*
- COc1nccnc1NS(=O)(=O)c1ccc(NC(=S)NC(=O)c2ccccc2)cc1
 : -4	-4	10	-2	22	87*
- COc1nccnc1NS(=O)(=O)c1ccc(NC(=S)NC(=O)/C=C/c2ccccc2)cc1
 : x	7	5	1	21	3
- C[C@H]1CN([C@@H](C)CO)C(=O)Cc2cc(NC(=O)NC3CCCCC3)ccc2O[C@@H]1CN(C)C(=O)Nc1cccc2ccccc12
 : 7	x	x	x	x	x
- CC(C)NS(=O)(=O)c1ccc2c3c(cccc13)CC2
 : x	12	-16	1	7	-16
- CC(C)NS(=O)(=O)c1ccc2c(c1)NCC2
 : x	-4	-1	1	33	99*
- CN(CC(=O)Nc1ccccc1N1CCOCC1)S(=O)(=O)c1ccc(Cl)cc1
 : -2	2	-4	0	13	-3

Next entries
Every second line gives: UUG fidelity	MC4R antagonist	HDAC3 inhib	MC4R barr agon	NALP1 yeast inh	ALR inh
- Cc1ccc(S(=O)(=O)N(C)CC(=O)Nc2ccccc2N2CCCC2)cc1
 : 4	13	0	1	x	83*
- CC1(c2ccccc2)NC(=O)N(CC(=O)Nc2ccc(S(=O)(=O)Nc3ncccn3)cc2)C1=O (stereo unspecified)
 : -12	-4	0	1	x	98*
- Cc1cc(NS(=O)(=O)c2ccc(NC(=O)CN3C(=O)NC(C)(c4ccccc4)C3=O)cc2)nc(C)n1 (stereo unspecified)
 : 0	4	6	-2	x	-3
- Cc1ccc(C2(C)NC(=O)N(CC(=O)Nc3ccccc3N3CCCCC3)C2=O)cc1 (stereo unspecified)
 : 0	4	12	-2	x	4
- Cc1ccc(C2(C)NC(=O)N(CC(=O)Nc3ccccc3N3CCCC3)C2=O)cc1 (stereo unspecified)
 : -8	-5	-2	-3	x	77*
- C[C@H]1CN([C@@H](C)CO)C(=O)c2cc(/C=C/c3ccccc3)cnc2O[C@H]1CN(C)Cc1cncnc1
 : -11	x	x	x	x	x
- COc1ccc(-c2cnc3c(c2)C(=O)N([C@H](C)CO)C[C@H](C)[C@@H](CN(C)C(=O)Cc2cccnc2)O3)cc1
 : 1	x	x	x	x	x
- O=c1c([N+](=O)[O-])c(N2CCCCC2)c2ccccc2n1-c1ccccc1
 : -12	0	10	-2	36*	-6
- O=c1c([N+](=O)[O-])c(NCCN2CCCCCC2)c2ccccc2n1-c1ccccc1
 : x	6	9	-2	18	-18
- O=C(C1CCCC1)N1CCCCN2[C@H](C1)[C@H](c1ccc(C#CC3CC3)cc1)[C@@H]2CO
 : 9	x	x	x	x	x

Next entries
Every second line gives: UUG fidelity	MC4R antagonist	HDAC3 inhib	MC4R barr agon	NALP1 yeast inh	ALR inh
- Cc1cc(=O)oc2c3c4c(cc12)OCCN4CCC3
 : -2	-2	-30	-2	30	97*
- CN(CCCNC(=O)CCC(=O)N1CCOc2ccc(Cl)cc21)Cc1ccccc1
 : -9	1	x	0	7	93*
- COc1ccc(CCNC(=O)c2ccc3c(c2)NC(=O)C(CSCc2cc(C)ccc2C)N3)cc1OC (stereo unspecified)
 : x	x	-1	x	2	99*
- COc1cccc(-n2nnnc2S(C)(=O)=O)c1
 : -49	43*	7	-3	18	99*
- C[C@@H]1CN([C@@H](C)CO)C(=O)Cc2cc(NC(=O)NC3CCCCC3)ccc2O[C@H]1CN(C)Cc1ccc(C(F)(F)F)cc1
 : 4	x	x	x	x	x
- C=CCC[C@@H](Cc1ccc(F)cc1)C(=O)OC[C@@H](NC(=O)[C@H](CC=C)CC(=O)N(CCO)Cc1ccccc1)c1ccccc1
 : -6	9	7	4	x	2
- C=CCC[C@@H](Cc1ccc(F)cc1)C(=O)OC[C@@H](Cc1c[nH]c2ccccc12)NC(=O)[C@@H](CC=C)CC(=O)N(CCO)Cc1ccccc1
 : -4	20	-2	1	x	-1
- C=CC[C@H](CC(=O)N(CCO)Cc1ccccc1)C(=O)N[C@H](COC(=O)[C@@H](CC=C)Cc1ccc(F)cc1)Cc1c[nH]c2ccccc12
 : -14	23	41*	0	x	0
- C=CCC[C@@H](Cc1ccc(F)cc1)C(=O)OC[C@@H]1CCCN1C(=O)[C@@H](CC=C)CC(=O)N[C@@H](CO)Cc1ccccc1
 : -8	0	35*	6	x	-7
- C=CC[C@@H](CC(=O)N(CCO)Cc1ccccc1)C(=O)N[C@@H](COC(=O)[C@@H](CC=C)Cc1ccc(F)cc1)Cc1ccccc1
 : -6	17	35*	-1	x	0

Additional entries:
Every second line gives: UUG fidelity	MC4R antagonist	HDAC3 inhib	MC4R barr agon	NALP1 yeast inh	ALR inh
- C=CCC[C@@H](Cc1ccc(F)cc1)C(=O)OC[C@@H](NC(=O)[C@@H](CC=C)CC(=O)N(CCO)Cc1ccccc1)c1ccccc1
 : -13	15	38*	3	x	1
- C/C=C/c1cnc2c(c1)C(=O)N([C@@H](C)CO)C[C@@H](C)[C@H](CN(C)C(=O)Nc1ccc(OC)cc1)O2
 : 8	x	x	x	x	x
- CC=Cc1ccc2n(c1=O)C[C@H]1[C@H](CO)[C@@H](C(=O)NCc3ccccc3)N(Cc3cncnc3)[C@@H]21 (mixture of isomers)
 : -3	x	x	x	x	x
- C[C@@H]1CN([C@H](C)CO)C(=O)c2cccc(NS(=O)(=O)c3cn(C)cn3)c2O[C@H]1CN(C)C(=O)NC1CCCCC1
 : 1	x	x	x	x	x
- O=C(C[C@H]1C=C[C@@H](NC(=O)c2ccccc2)[C@@H](CO)O1)NCCc1ccncc1
 : -7	x	x	x	x	x
- C=CCC[C@H](Cc1ccc(F)cc1)C(=O)OC[C@H](Cc1c[nH]c2ccccc12)NC(=O)[C@H](CC=C)CC(=O)N(CCO)Cc1ccccc1
 : -13	20	47*	2	x	-4
- C=CCC[C@H](Cc1ccc(F)cc1)C(=O)OC[C@H](Cc1c[nH]c2ccccc12)NC(=O)[C@@H](CC=C)CC(=O)NCCO
 : -9	11	31*	-1	x	-2
- C=CC[C@H](CC(=O)N(CCO)Cc1ccccc1)C(=O)NC[C@H](OC(=O)[C@@H](CC=C)Cc1ccc(F)cc1)c1ccccc1
 : -17	27	28*	-2	x	-2
- O=C(C[C@H]1CC[C@@H]2[C@H](COC[C@@H](O)CN2S(=O)(=O)c2ccccc2)O1)NCc1ccc2c(c1)OCO2
 : 9	x	x	x	x	x
- COC(=O)C(CC#Cc1ccc2c(c1)[C@]1(C(=O)N2)[C@H](c2ccccc2OCCO)N2[C@H](c3ccccc3)[C@H](c3ccccc3)OC(=O)[C@H]2[C@@H]1C(=O)N1CCCCCCC1)C(=O)OC
 : 15	x	x	x	x	x
- CN(C)Cc1cn(CC[C@@H]2CC[C@@H](NC(=O)Nc3ccc4c(c3)OCO4)[C@@H](CO)O2)nn1
 : -12	x	x	x	x	x

One compound at a time (already shown). Order of values: UUG fidelity	MC4R antagonist	HDAC3 inhib	MC4R barr agon	NALP1 yeast inh	ALR inh
CC1(c2ccccc2)NC(=O)N(CC(=O)Nc2ccc(S(=O)(=O)Nc3ncccn3)cc2)C1=O (stereo unspecified) as listed: -12	-4	0	1	x	98*
C=CCC[C@@H](Cc1ccc(F)cc1)C(=O)OC[C@@H](NC(=O)[C@@H](CC=C)CC(=O)N(CCO)Cc1ccccc1)c1ccccc1 as listed: -13	15	38*	3	x	1
C[C@H]1CN([C@@H](C)CO)C(=O)Cc2cc(NC(=O)NC3CCCCC3)ccc2O[C@@H]1CN(C)C(=O)Nc1cccc2ccccc12 as listed: 7	x	x	x	x	x
C=CC[C@H](CC(=O)N(CCO)Cc1ccccc1)C(=O)NC[C@H](OC(=O)[C@@H](CC=C)Cc1ccc(F)cc1)c1ccccc1 as listed: -17	27	28*	-2	x	-2
